Key:
[1] = target: Adenosine receptor A1 (Rattus norvegicus) (UniProt P25099); assay: Ability to displace [3H]N6-phenylisopropyladenosine binding from adenosine A1 receptor.
[2] = target: Adenosine receptor A3 (Homo sapiens) (UniProt P0DMS8); assay: Ability to displace [125I]-AB-MECA binding from adenosine A3 receptor.
[3] = target: Adenosine receptor A2a (Rattus norvegicus) (UniProt P30543); assay: Ability to displace [3H]-CGS- 21680 binding from adenosine A2A receptor.

Sequences of proteins named here, by UniProt entry; tags and fusion partners are left off.
UniProt P25099, whole entry: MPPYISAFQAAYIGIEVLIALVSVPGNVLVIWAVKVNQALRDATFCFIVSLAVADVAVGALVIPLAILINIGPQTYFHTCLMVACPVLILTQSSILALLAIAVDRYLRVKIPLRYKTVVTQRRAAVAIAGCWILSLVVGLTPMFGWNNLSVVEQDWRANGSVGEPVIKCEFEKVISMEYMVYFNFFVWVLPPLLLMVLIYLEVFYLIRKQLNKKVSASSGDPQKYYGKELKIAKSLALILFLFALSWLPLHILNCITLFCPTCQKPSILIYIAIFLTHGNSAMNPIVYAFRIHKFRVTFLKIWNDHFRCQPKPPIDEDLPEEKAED
UniProt P0DMS8, whole entry: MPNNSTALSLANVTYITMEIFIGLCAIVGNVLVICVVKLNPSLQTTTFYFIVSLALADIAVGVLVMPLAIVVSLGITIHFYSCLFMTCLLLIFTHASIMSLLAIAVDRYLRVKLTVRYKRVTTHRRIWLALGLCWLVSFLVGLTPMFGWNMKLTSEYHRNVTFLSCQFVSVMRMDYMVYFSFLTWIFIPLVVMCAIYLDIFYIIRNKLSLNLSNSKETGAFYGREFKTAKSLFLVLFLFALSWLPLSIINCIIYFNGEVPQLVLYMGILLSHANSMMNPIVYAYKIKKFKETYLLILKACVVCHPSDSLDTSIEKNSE
UniProt P30543, whole entry: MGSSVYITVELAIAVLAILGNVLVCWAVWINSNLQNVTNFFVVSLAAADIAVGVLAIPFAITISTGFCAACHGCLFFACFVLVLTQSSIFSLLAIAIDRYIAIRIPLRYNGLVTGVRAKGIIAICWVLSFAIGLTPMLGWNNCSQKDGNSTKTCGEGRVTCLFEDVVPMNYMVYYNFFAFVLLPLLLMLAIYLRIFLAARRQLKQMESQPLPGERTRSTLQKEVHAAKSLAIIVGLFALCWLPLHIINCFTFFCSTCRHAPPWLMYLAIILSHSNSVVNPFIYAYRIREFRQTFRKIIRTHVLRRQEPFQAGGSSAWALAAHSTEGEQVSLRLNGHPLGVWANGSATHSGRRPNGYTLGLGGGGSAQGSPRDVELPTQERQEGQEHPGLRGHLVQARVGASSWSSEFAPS

Row | SMILES | pKi(uM) [1] | pKi(uM) [2] | pKi(uM) [3]
1 | CCOc1ccc(-c2oc3cc(OCC)cc(OCC)c3c(=O)c2OCC)c(OCC)c1 | -1.51 | – | –
2 | COc1ccc(-c2oc3cc(OC)cc(OC)c3c(=O)c2OC)c(OC)c1 | -1.44 | -0.42 | -1.67
3 | CCCOc1c2ccoc2cc2oc(/C=C/c3ccccc3)cc(=O)c12 | -1.6 | -0.6 | –
4 | CCCOc1cc(OCCC)c2c(=O)c(OCCC)c(-c3ccccc3)oc2c1 | -0.04 | 0.5 | –
